Experimental data taken from patent US20070036775A1, “Method of modulating or examining Ku70 levels in cells” (priority 2001, published 2007).

System: Du145 cells
Test: Apoptosis in Bax-deficient Du145 cells
Type: cell-based, human
Procedure: Bax-deficient Du145 cells (10^6 cells) were transfected by 1.0 μg of pcDNA3-Bax (Bax) or pcDNA3-Bax-ΔN (BaxΔN), together with 1.0 μg of pCMV-2B (Vector), pcDNA3-Myc-XIAP (XIAP), pcDNA3-Bcl-2 (Bcl-2), pcDNA3-Bcl-XL (Bcl-XL), or pCMV-2B-Ku70 wt (Ku70 wt). All the cells were also co-transfected with 0.5 μg PEGFP for the marking of transfected cells. Cells in the control group received 0.5 μg of pEGFP, 1.0 μg of pcDNA3, and 1.0 μg of pCMV-2B. One day following transfection, apoptosis was detected as described in FIG. 1. […] Du145 cells (10^6 cells) were transfected with 1.0 μg pCMV-2B (Vector), pcDNA3-Myc-XIAP (XIAP), pCMV-2B-Ku70 wt (Ku70 wt), or pCMV-2B-Ku70536-609 (Ku70536-609) together with 0.5 μg pEGFP. One day following transfection, cells were treated with 200 nM STS and the number of apoptotic cells was counted as described in FIG. 1 after 24 hours of STS treatment. In control group, 1.0 μg of pcDNA3 and pCMV-2B were transfected (Control). […] After 24 hours, apoptotic cells were counted as described in FIG. 1. […] The number of apoptotic cells was counted as described in FIG. 1. […] One day following transfection, cells were treated with 1 μg/ml anti-Fas antibody or 100 ng/ml TRAIL and the number of apoptotic cells was counted after 24 hours of anti-Fas antibody or TRAIL treatment as described in FIG. 1. […]
HEK293T cells, HeLa cells, and mouse embryonic fibroblasts (MEF) were cultured in DMEM supplemented with 10% fetal bovine serum (FBS). […] Apoptosis in the transfected cells were analyzed as follows: Plasmid encoding EGFP (0.5 ug of pEGFP) was transfected to all the groups to mark the transfected cells. One day following transfection of the plasmids listed in the figure legends or treatment of the cells with staurosporin (STS) or UVC-irradiation, cells were stained with Hoechst dye and cells with apoptotic nuclei were counted in GFP expressing cells under fluorescent microscope as previously reported (Wei, et al., 2001). […] Caspase activities of cells were measured by detecting the cleavage of fluorogenic substrate of caspase (DEVD-afc) as previously described (Deveraux, et al., 1997).

For “Ku70: human full length Ku70, 70 kDa subunit of Ku-complex (609 amino acids), expressed from pCMV-2B plasmid”, the “effect on STS-induced apoptosis in Bax-deficient cells” value (Du145, 200 nM STS, 24 hours, Ku70 overexpression) was “did not suppress STS-induced apoptosis in this Bax-deficient cell line”, the “effect on UVC-irradiation-induced cell death in Bax-deficient cells” value (Du145, 200 J/m^2 UVC, 24 hours) was “can attenuate UVC-irradiation-induced cell death regardless of Bax expression” and the “effect on BaxΔN-induced apoptosis” value (Du145 cells lacking endogenous Bax) was “did not suppress apoptosis-inducing activity of BaxΔN”.
